Measured values: ChEMBL document CHEMBL5625280, “Discovery of novel nucleoside derivatives as selective lysine acetyltransferase p300 inhibitors for cancer therapy” (Bioorg Med Chem Lett, 2024)

The chains behind the UniProt entries cited, without tags or fusion partners.
UniProt Q92793, whole entry, looked up: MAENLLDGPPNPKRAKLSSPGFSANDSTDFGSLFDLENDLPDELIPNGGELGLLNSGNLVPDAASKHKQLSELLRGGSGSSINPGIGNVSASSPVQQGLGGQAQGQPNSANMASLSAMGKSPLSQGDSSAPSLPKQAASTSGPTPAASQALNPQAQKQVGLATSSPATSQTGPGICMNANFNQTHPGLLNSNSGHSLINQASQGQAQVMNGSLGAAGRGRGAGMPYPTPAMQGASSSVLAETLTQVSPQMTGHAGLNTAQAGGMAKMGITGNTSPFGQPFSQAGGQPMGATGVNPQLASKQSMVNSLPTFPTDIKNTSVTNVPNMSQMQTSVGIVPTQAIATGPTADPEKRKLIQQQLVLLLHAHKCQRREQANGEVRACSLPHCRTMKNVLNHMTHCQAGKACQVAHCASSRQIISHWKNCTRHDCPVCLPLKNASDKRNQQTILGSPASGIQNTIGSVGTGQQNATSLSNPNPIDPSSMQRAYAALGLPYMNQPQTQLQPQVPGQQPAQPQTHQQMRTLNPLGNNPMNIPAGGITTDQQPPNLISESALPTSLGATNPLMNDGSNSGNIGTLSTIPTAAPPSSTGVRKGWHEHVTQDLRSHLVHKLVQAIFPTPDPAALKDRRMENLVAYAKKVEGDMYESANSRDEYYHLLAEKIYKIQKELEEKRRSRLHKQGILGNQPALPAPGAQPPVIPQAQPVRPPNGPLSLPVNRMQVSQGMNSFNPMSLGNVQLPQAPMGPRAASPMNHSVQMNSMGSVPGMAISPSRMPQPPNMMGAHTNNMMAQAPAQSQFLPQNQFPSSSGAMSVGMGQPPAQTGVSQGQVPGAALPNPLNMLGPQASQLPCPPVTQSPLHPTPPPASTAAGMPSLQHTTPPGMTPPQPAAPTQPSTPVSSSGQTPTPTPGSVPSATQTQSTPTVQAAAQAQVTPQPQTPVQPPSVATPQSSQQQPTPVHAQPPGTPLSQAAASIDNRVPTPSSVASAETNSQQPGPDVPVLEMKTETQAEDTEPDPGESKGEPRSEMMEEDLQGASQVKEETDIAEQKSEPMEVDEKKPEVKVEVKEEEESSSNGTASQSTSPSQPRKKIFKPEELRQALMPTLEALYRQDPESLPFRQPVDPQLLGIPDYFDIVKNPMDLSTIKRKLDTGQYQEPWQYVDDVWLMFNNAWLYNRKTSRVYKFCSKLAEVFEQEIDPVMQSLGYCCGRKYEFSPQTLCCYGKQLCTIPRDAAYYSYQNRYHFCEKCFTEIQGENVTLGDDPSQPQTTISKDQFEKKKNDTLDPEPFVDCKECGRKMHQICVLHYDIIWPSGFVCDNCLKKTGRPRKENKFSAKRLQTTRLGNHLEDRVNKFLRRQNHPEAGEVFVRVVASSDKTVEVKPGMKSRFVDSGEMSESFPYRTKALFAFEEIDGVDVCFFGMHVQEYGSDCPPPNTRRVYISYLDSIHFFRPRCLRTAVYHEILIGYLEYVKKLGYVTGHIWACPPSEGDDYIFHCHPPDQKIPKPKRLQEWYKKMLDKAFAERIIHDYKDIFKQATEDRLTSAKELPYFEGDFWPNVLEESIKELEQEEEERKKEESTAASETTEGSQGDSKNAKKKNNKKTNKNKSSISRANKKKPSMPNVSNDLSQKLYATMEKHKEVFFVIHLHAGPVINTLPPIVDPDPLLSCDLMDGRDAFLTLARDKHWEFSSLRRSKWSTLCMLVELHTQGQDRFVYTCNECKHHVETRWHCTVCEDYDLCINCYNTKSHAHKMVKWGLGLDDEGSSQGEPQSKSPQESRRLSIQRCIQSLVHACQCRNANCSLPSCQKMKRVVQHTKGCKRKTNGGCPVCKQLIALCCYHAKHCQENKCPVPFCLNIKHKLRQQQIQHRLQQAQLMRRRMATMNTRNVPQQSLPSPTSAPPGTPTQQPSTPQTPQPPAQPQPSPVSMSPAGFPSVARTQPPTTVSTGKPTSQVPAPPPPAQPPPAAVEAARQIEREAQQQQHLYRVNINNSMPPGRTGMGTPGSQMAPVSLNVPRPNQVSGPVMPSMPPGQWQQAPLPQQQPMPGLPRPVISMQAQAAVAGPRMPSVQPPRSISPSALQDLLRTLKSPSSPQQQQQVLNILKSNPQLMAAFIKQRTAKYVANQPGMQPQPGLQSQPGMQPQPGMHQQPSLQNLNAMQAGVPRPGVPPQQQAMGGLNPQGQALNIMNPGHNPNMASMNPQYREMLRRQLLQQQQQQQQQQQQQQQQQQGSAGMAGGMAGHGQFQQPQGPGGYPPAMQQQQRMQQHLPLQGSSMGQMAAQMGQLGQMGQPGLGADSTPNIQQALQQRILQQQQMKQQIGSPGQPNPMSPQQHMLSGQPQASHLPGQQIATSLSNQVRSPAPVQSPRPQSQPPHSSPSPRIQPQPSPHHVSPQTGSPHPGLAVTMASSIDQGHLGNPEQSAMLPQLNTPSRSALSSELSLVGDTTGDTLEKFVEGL

What follows are compounds tested against CREB-binding protein (Homo sapiens) (UniProt Q92793) (assay: Inhibition of CBP (unknown origin) at 10 uM by CBR HAT assay relative to control).

Row | SMILES | inhibition [%]
1 | CCOC(=O)CCCCCn1cc(Cn2ccc(N)nc2=O)nn1 | 0
2 | COC(=O)c1ccc(CCCCn2cc(-c3ccc(Cn4cc(C)c(N)nc4=O)cc3)nn2)cc1 | 36
3 | Nc1ccn(Cc2ccc(-c3cn(CCCCC(=O)O)nn3)cc2)c(=O)n1 | 31
4 | CCOC(=O)CCCCCn1cc(Cn2cnc(N)nc2=O)nn1 | 1
5 | Nc1nc(=O)n(Cc2ccc(-c3cn(CCCCc4ccc(C(=O)O)cc4)nn3)cc2)cc1F | 56
6 | COC(=O)c1ccc(CCCCn2cc(-c3ccc(Cn4ccc(=O)[nH]c4=O)cc3)nn2)cc1 | 36
7 | CCOC(=O)CCCCCCn1cc(-c2ccc(Cn3cnc(N)nc3=O)cc2)nn1 | 20
8 | Nc1ccn(Cc2ccc(-c3cn(CCCCCC(=O)O)nn3)cc2)c(=O)n1 | 13
9 | Nc1nc(=O)n(Cc2cn(CCCCc3ccc(C(=O)O)cc3)nn2)cc1F | 81
10 | COC(=O)c1ccc(CCCCn2cc(-c3ccc(Cn4ccc(N)nc4=O)cc3)nn2)cc1 | 62
11 | COC(=O)c1ccc(CCCCn2cc(Cn3cnc4c(N)ncnc43)nn2)cc1 | 15
12 | CCOC(=O)CCCCCn1cc(Cn2cc(F)c(N)nc2=O)nn1 | 7
13 | CCOC(=O)CCCCCn1cc(Cn2cc(C)c(N)nc2=O)nn1 | -3
14 | Nc1ccn(Cc2ccc(-c3cn(CCCCCCC(=O)O)nn3)cc2)c(=O)n1 | 25
15 | COC(=O)c1ccc(CCCCn2cc(Cn3ccc(N)nc3=O)nn2)cc1 | 11
16 | CCOC(=O)CCCn1cc(Cn2cnc(N)nc2=O)nn1 | 21
17 | CCOC(=O)CCCCCCn1cc(-c2ccc(Cn3cc(F)c(N)nc3=O)cc2)nn1 | 8
18 | COC(=O)c1ccc(CCCCn2cc(Cn3cc(F)c(N)nc3=O)nn2)cc1 | 3
19 | Nc1ncn(Cc2cn(CCCCc3ccc(C(=O)O)cc3)nn2)c(=O)n1 | 38
20 | CCOC(=O)CCCCCn1cc(Cn2cnc3c(N)ncnc32)nn1 | 4
21 | Nc1ccn(Cc2cn(CCCCc3ccc(C(=O)O)cc3)nn2)c(=O)n1 | 13
22 | COC(=O)c1ccc(CCCCn2cc(-c3ccc(Cn4cc(F)c(N)nc4=O)cc3)nn2)cc1 | 36
23 | CCOC(=O)CCCn1cc(-c2ccc(Cn3ccc(N)nc3=O)cc2)nn1 | 33
24 | O=C(O)c1ccc(CCCCn2cc(Cn3ccc(=O)[nH]c3=O)nn2)cc1 | 2

Row | SMILES | inhibition [%]
25 | CCOC(=O)CCCCn1cc(-c2ccc(Cn3cnc(N)nc3=O)cc2)nn1 | 20
26 | COC(=O)c1ccc(CCCCn2cc(Cn3ccc(=O)[nH]c3=O)nn2)cc1 | 11
27 | CCOC(=O)CCCCCn1cc(-c2ccc(Cn3cnc(N)nc3=O)cc2)nn1 | 30
28 | Nc1ncnc2c1ncn2Cc1cn(CCCCc2ccc(C(=O)O)cc2)nn1 | 16
29 | CCOC(=O)CCCCCCn1cc(Cn2cnc(N)nc2=O)nn1 | 21
30 | CCOC(=O)CCCCCn1cc(Cn2ccc(=O)[nH]c2=O)nn1 | -4
31 | COC(=O)c1ccc(CCCCn2cc(-c3ccc(Cn4cnc(N)nc4=O)cc3)nn2)cc1 | 28
32 | COC(=O)c1ccc(CCCCn2cc(-c3ccc(Cn4cnc5c(N)ncnc54)cc3)nn2)cc1 | 59
33 | CCOC(=O)CCCn1cc(-c2ccc(Cn3cnc(N)nc3=O)cc2)nn1 | 10
34 | Nc1ccn(Cc2ccc(-c3cn(CCCC(=O)O)nn3)cc2)c(=O)n1 | 28
35 | CCOC(=O)CCCCn1cc(-c2ccc(Cn3ccc(N)nc3=O)cc2)nn1 | 28
36 | COC(=O)c1ccc(CCCCn2cc(Cn3cnc(N)nc3=O)nn2)cc1 | 25
37 | O=C(O)c1ccc(CCCCn2cc(-c3ccc(Cn4ccc(=O)[nH]c4=O)cc3)nn2)cc1 | 14
38 | CCOC(=O)CCCCCn1cc(-c2ccc(Cn3ccc(N)nc3=O)cc2)nn1 | 30
39 | Cc1cn(Cc2cn(CCCCc3ccc(C(=O)O)cc3)nn2)c(=O)nc1N | 11
40 | CCOC(=O)CCCCCCn1cc(-c2ccc(Cn3cnc4c(N)ncnc43)cc2)nn1 | 5
41 | Nc1ccn(Cc2ccc(-c3cn(CCCCc4ccc(C(=O)O)cc4)nn3)cc2)c(=O)n1 | 34
42 | CCOC(=O)CCCCn1cc(Cn2cnc(N)nc2=O)nn1 | 12
43 | Nc1ncnc2c1ncn2Cc1ccc(-c2cn(CCCCc3ccc(C(=O)O)cc3)nn2)cc1 | 32
44 | CCOC(=O)CCCCCCn1cc(-c2ccc(Cn3ccc(N)nc3=O)cc2)nn1 | 20
45 | COC(=O)c1ccc(CCCCn2cc(Cn3cc(C)c(N)nc3=O)nn2)cc1 | 4
46 | Cc1cn(Cc2ccc(-c3cn(CCCCc4ccc(C(=O)O)cc4)nn3)cc2)c(=O)nc1N | 15
47 | CCOC(=O)CCCCCCn1cc(-c2ccc(Cn3cc(C)c(N)nc3=O)cc2)nn1 | 5
48 | CCOC(=O)CCCCCCn1cc(-c2ccc(Cn3ccc(=O)[nH]c3=O)cc2)nn1 | -1
